## Apparent affinities of Ab-14 variants for a coronavirus HR2 peptide

Values reported by Engelhart et al. 2022, doi:10.1038/s41597-022-01779-4 (FLAb copy).

The target is the same throughout: PDVDLGDISGINAS, from the HR2 region of SARS-CoV-2 spike.

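The parent was found by panning a naive human phage display library on the peptide. AAYL49 was designed without a model: most single CDR substitutions and a random sample of double and triple ones. The scFvs were displayed on barcoded MATa yeast, the peptide on MATalpha yeast. Binding brings cells together so that they mate, and sequencing counts the barcode pairs among the diploids. A regression on co-assayed BCL2-family reference pairs converts the normalised counts of each replicate to an apparent Kd. Mating was done three times.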

Ab-14 is the parent antibody, in scFv form: VH, then a 15-residue (Gly4Ser)3 linker, then VL. The light chain is unchanged in all variants.
VH: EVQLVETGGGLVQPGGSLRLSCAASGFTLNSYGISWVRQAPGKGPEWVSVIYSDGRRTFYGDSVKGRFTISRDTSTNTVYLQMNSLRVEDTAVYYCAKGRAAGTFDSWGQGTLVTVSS
VL: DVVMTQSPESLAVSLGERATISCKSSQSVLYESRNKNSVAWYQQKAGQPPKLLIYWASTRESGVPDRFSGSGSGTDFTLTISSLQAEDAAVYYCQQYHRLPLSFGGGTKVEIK

Substitutions are numbered in sequence along the VH above, starting at 1 (not Kabat).
Every variant below is changed at V64 of the VH (sequential numbering).
Each Kd is an estimate from the mating assay, the geometric mean of the replicates in which the pair was seen; lower is stronger.
"nd" means that the variant was in the library but no mating with the target was seen in any replicate; the authors take this as a sign of poor binding, and no number exists.
Nonspecific signal, from three strains lacking the peptide, appeared in 15% of pairings of library AAYL49, centred on 11 µM (5% of these signals below 680 nM); values are not corrected for it.

- V64I/G103D/D106E -> 120 nM (3 of 3 replicates)
- G55A/V64K/K65P -> nd (0 of 3 replicates)
- T58V/V64H/R100F -> nd (0 of 3 replicates)
- V64E/T104I/S107P -> nd (0 of 3 replicates)
- R56I/Y60R/V64T -> 270 nM (1 of 3 replicates)
- Y60G/V64Q -> 1.7 µM (1 of 3 replicates)
- V64F/G99M/A102G -> nd (0 of 3 replicates)
- F27D/G33Q/V64L -> nd (0 of 3 replicates)
- D62Q/V64H -> 2.8 µM (1 of 3 replicates)
- L29N/F59N/V64E -> nd (0 of 3 replicates)
- Y52N/V64H/T104W -> nd (0 of 3 replicates)
- G55C/V64G/S107F -> 19 µM (1 of 3 replicates)
- R56N/V64P/G103M -> 50 µM (2 of 3 replicates)
- F59H/V64D/D106M -> 100 µM (1 of 3 replicates)
- I34M/D62Y/V64H -> nd (0 of 3 replicates)
- S31L/V64F/S107C -> nd (0 of 3 replicates)
- R57K/V64N/D106A -> nd (0 of 3 replicates)
- G33V/V64M/A102P -> 110 µM (2 of 3 replicates)
- G33W/D62E/V64P -> nd (0 of 3 replicates)
- T28V/Y52N/V64D -> nd (0 of 3 replicates)
- S53Q/D54M/V64A -> nd (0 of 3 replicates)
- Y60L/S63R/V64A -> 27 µM (3 of 3 replicates)
- F27R/G55Y/V64M -> nd (0 of 3 replicates)
- V64L/G99P -> nd (0 of 3 replicates)
- F27T/V64D/K65Q -> nd (0 of 3 replicates)
- V64W/A101N/S107L -> 220 nM (3 of 3 replicates)
- V64K/K65F/T104D -> 26 µM (1 of 3 replicates)
- V64C -> 150 nM (3 of 3 replicates)
- F27Y/L29D/V64K -> 8.1 µM (1 of 3 replicates)
- S31N/V50C/V64M -> 160 µM (2 of 3 replicates)
- G33T/S63A/V64D -> 130 µM (1 of 3 replicates)
- G26D/I51K/V64S -> nd (0 of 3 replicates)
- T28G/V64P -> 130 nM (3 of 3 replicates)
- I34N/V64H/S107Q -> 27 µM (2 of 3 replicates)
- L29E/V64R/T104V -> 7.3 µM (2 of 3 replicates)
- I34H/R57F/V64P -> nd (0 of 3 replicates)
- V64S/A101N -> 43 nM (3 of 3 replicates)
- T58C/G61C/V64Y -> nd (0 of 3 replicates)
- F27S/S35Y/V64G -> 30 µM (2 of 3 replicates)
- G55N/S63K/V64G -> nd (0 of 3 replicates)
- R56Q/F59V/V64N -> 4.6 µM (1 of 3 replicates)

A selection of 3 entries from above:

changes,Kd,seen in
V64I/G103D/D106E,120 nM,3 of 3
V64K/K65F/T104D,26 µM,1 of 3
I34M/D62Y/V64H,nd,0 of 3